Test results as given in BindingDB's records for PubMed 7965746 (U. 109, 1994).
“And” between values parts separate entries of the source, which are not always exact repeats. Identical values can stand only once.

Chains of the proteins cited; added tags and fusions are not shown.
UniProt Q5PPG3, whole entry: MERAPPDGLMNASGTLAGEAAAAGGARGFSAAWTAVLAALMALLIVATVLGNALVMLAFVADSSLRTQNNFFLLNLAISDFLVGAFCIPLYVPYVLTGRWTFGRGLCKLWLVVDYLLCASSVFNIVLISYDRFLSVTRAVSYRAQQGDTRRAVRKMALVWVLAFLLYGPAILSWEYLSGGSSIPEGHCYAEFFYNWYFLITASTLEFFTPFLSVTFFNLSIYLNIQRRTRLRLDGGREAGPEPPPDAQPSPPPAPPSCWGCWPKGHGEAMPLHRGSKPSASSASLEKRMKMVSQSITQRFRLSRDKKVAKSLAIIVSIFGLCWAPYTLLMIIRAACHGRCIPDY

Target: Hrh3 protein (Rattus norvegicus, UniProt Q5PPG3)

## NC(=NCc1ccc(Cl)cc1)SCCCc1cnc[nH]1 [VUF 9153]
  Ki: 0.48 nM and 0.6 nM
